What all share (type): cell-based
The target of one assay is 5-HT2C (Homo sapiens (Human), UniProt P28335). Description: Ca2+/Fluo-4 assay, stable h5-HT2C-HEK293 cell line.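 Further: Agonist-induced intracellular Ca2+ rise read by Fluo-4 fluorescence in HEK293 cells stably expressing the human 5-HT2C receptor, each compound run in duplicate on three or more occasions.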 The settings on record: tested form: HCl.
The target in assay [1] is T1, human 5-HT2A (Homo sapiens (Human), UniProt P28223). Description: Ca2+/Fluo-4 assay, stable h5-HT2A-HEK293 cell line. The settings on record: tested form: HCl; for 5-HT2A Rmax ± S.E.M: % of the Rmax of 5-HT; for Selectivity EC50 5-HT2C/EC50 5-HT2A: Ca2+/Fluo-4 assay, bounds are conservative estimates; for 5-HT2A [pEC50 ± S.E.M.] / EC50: agonist potency, n = 3-4; for EC50: read-out: 5-HT2A EC50.

Amino acid sequences for entries named in this document (tags omitted). Residues count along the entry.
UniProt P28335, 33-458 limits assumed: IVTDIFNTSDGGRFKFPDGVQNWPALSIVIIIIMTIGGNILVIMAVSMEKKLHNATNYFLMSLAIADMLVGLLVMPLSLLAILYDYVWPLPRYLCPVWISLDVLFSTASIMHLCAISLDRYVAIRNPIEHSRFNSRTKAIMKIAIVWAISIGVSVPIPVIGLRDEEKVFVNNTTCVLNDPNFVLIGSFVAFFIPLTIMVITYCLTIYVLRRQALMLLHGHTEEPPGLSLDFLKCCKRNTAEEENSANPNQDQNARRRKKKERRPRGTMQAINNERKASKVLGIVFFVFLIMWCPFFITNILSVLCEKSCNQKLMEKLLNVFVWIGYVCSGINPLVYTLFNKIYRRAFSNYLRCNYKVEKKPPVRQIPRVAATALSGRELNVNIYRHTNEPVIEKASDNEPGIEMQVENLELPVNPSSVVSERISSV
UniProt P28223, whole entry: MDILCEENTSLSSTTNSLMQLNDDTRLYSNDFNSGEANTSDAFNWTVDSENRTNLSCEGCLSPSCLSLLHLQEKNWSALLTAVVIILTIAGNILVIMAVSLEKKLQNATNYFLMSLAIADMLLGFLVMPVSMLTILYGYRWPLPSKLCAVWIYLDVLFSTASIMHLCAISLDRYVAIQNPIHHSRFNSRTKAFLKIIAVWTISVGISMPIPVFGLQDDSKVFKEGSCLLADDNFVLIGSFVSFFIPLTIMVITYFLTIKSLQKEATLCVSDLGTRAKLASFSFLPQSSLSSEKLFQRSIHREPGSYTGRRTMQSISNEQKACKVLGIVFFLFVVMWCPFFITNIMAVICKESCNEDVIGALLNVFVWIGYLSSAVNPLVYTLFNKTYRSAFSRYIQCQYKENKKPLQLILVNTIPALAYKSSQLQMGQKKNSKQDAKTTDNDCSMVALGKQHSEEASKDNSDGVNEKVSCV
UniProt P41595, whole entry: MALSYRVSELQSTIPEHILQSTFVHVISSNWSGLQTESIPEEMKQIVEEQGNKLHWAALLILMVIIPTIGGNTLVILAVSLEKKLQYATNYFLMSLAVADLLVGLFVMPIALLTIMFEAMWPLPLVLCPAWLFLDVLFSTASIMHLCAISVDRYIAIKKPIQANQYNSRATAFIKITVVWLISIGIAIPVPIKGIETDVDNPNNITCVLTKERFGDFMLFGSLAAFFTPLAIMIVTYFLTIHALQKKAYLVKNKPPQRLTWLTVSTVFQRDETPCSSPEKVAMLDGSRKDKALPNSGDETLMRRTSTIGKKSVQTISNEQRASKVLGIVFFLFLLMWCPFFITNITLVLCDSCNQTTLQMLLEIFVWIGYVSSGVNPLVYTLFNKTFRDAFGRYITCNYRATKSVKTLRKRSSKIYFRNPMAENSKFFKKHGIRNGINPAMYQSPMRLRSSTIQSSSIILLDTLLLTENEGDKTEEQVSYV

Another assay has as its target 5-HT2B (Homo sapiens (Human), UniProt P41595). Nature of the assay: IP assay (Eurofins, IP1 HTRF), HEK293 cells. Particulars: for Selectivity EC50 5-HT2B/EC50 5-HT2A: bounds are conservative estimates; for EC50: read-out: 5-HT2B EC50, duplicate determinations, tested form: HCl.
Assay [2] deals with T1, human 5-HT2A. Description: IP assay (Eurofins, IP1 HTRF), HEK293 cells. The settings on record: for 5-HT2A Rmax: % of Rmax of 5-HT, tested form: HCl; for EC50: read-out: 5-HT2A EC50, duplicate determinations, tested form: HCl.
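Wherever 5-HT2B Rmax is given: agonist effect read as cellular IP1 production by HTRF using a europium cryptate anti-IP1 antibody donor and D2-labeled IP1 acceptor, eight compound concentrations in each cell line.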
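Wherever 5-HT2B agonist activity (n.a.) is given: agonist effect read as cellular IP1 production by HTRF using a europium cryptate anti-IP1 antibody donor and D2-labeled IP1 acceptor, eight compound concentrations in each cell line.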
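Wherever Selectivity EC50 5-HT2B/EC50 5-HT2A is given: agonist effect read as cellular IP1 production by HTRF using a europium cryptate anti-IP1 antibody donor and D2-labeled IP1 acceptor, eight compound concentrations in each cell line.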

For `COc1cc(C(F)(F)F)c(SC)cc1[C@@H]1CCCNC1`, the “5-HT2C Rmax ± S.E.M” value on 5-HT2C (% of the Rmax of 5-HT) was 22 ± 4%. The “5-HT2C [pEC50 ± S.E.M.]” value at 5-HT2C (agonist potency, n = 3-4) was “[6.78 ± 0.13]”. Further, on 5-HT2C (read-out: 5-HT2C EC50, agonist potency, n = 3-4), the EC50 amounted to 170 nM. In addition, at human 5-HT2A [1], the “5-HT2A Rmax ± S.E.M” value is recorded as 82 ± 3%, the Selectivity EC50 5-HT2C/EC50 5-HT2A is 18, the “5-HT2A [pEC50 ± S.E.M.]” value was “[8.04 ± 0.02]” and the EC50 amounted to 9.1 nM. The “5-HT2B Rmax” value at 5-HT2B (% of Rmax of 5-HT, tested form: HCl) is on record as 63%. In addition, at 5-HT2B (tested form: HCl), the Selectivity EC50 5-HT2B/EC50 5-HT2A is 6.6. Also, the EC50 on 5-HT2B was determined as 92 nM. On human 5-HT2A [2], the “5-HT2A Rmax” value is listed as 71% and the EC50 was 14 nM.

Consider `CCOc1cc([C@@H]2CCCNC2)c(OCC)cc1CC`, for which the “5-HT2C agonist activity (n.a./w.a.)” value on 5-HT2C (tested up to 50 μM) is “w.a”. Also, on human 5-HT2A [1], the “5-HT2A Rmax ± S.E.M” value is 44 ± 5%, the Selectivity EC50 5-HT2C/EC50 5-HT2A was > 100, the “5-HT2A [pEC50 ± S.E.M.]” value was “[6.42 ± 0.09]” and the EC50 was found to be 380 nM. In addition, on 5-HT2B (tested form: HCl), the Selectivity EC50 5-HT2B/EC50 5-HT2A is > 100. The EC50 on 5-HT2B is > 100000 nM. Moreover, the “5-HT2B agonist activity (n.a.)” value on 5-HT2B (up to 100 μM (Table 3), tested form: HCl) was “n.a. [@ 100 μM]^a > (no agonist activity: the compound did not evoke significant responses at concentrations up to 100 μM)”. Further, at human 5-HT2A [2], the “5-HT2A Rmax” value was 62% and the EC50 worked out at 720 nM.

Source of the values: patent US11642336B2, “5-HT2A agonists for use in treatment of depression” (priority 2019, dated 2023).
